Measurements from patent publication US7488745B2, “Compounds for the treatment of inflammatory disorders” (Schering Corporation, priority 2004, dated 2009).

Chains of the proteins cited; added tags and fusions are not shown. Residues count along the entry.
UniProt P78536, 215-477 S266A/N452Q limits assumed: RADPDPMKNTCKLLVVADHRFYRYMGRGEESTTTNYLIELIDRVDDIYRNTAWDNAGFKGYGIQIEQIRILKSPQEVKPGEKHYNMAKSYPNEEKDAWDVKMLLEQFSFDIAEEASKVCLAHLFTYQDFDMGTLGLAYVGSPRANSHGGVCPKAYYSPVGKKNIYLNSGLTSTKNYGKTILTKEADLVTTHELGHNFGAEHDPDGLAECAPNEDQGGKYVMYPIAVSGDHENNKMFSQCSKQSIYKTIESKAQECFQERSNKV

Biological target: purified catalytic domain of recombinant human TACE (rhTACEc) (Homo sapiens, UniProt P78536, N452Q/S266A)
Test: TACE kinetic assay: cleavage of internally quenched peptide substrate SPDL-3 (fluorescence)
Conditions: Ki (nM)
[1] = TABLE 6000, Ki printed as class symbols A-D
[2] = Specific TACE inhibitory activity (Ki values)

Row | Compound | Ki [1] [nM] | Ki [2] [nM]
1 | COc1ccc2c(c1)C(=O)N(C[C@@]1(/C=C/c3cccc(C(C)C)c3)NC(=O)NC1=O)C2 [Compound 9239] | < 10 | 
2 | COc1ccc2c(c1)C(=O)N(C[C@@]1(CCc3cc(F)cc(F)c3)NC(=O)NC1=O)C2 [Compound 9241] | < 10 | 
3 | COc1ccc2c(c1)C(=O)N(C[C@@]1(CCc3ccc(F)cc3F)NC(=O)NC1=O)C2 [Compound 9242] | < 10 | 
4 | COc1ccc2c(c1)C(=O)N(C[C@@]1(CCc3cccnc3)NC(=O)NC1=O)C2 [Compound 9243] | < 10 | 
5 | COc1ccc2c(c1)C(=O)N(C[C@@]1(CCc3cccc(C(C)C)c3)NC(=O)NC1=O)C2 [Compound 9244] | < 10 | 
6 | O=C1NC(=O)C(CCc2cccnc2)(CN2Cc3ccc(F)cc3C2=O)N1 (stereo not shown) [Compound 9245] | 10 to 100 | 
7 | C=C[C@]1(CN2Cc3ccc(OC)cc3C2=O)NC(=O)NC1=O [Compound 9246] | 10 to 100 | 
8 | O=C1NC(=O)[C@](CN2Cc3ccc(F)cc3C2=O)(c2cc(-c3ccccc3)no2)N1 [Compound 9247] | < 10 | 
9 | COc1ccc2c(c1)C(=O)N(C[C@@]1(c3cc(-c4ccncc4)no3)NC(=O)NC1=O)C2 [Compound 9248] | < 10 | 
10 | COc1ccc2c(c1)C(=O)N(C[C@@]1(c3cc(-c4cccnc4)no3)NC(=O)NC1=O)C2 [Compound 9249] | < 10 | 
11 | COc1ccc2c(c1)C(=O)N(C[C@@]1(c3cc(-c4ccccn4)no3)NC(=O)NC1=O)C2 [Compound 9250] | < 10 | 
12 | COc1ccc2c(c1)C(=O)N(C[C@@]1(c3cc(-c4ccc[nH]4)no3)NC(=O)NC1=O)C2 [Compound 9251] | < 10 | 
13 | COc1ccc2c(c1)C(=O)N(C[C@@]1(c3cc(-c4ccco4)no3)NC(=O)NC1=O)C2 [Compound 9252] | < 10 | 
14 | COc1ccc2c(c1)C(=O)N(C[C@@]1(c3cc(-c4cccs4)no3)NC(=O)NC1=O)C2 [Compound 9253] | < 10 | 
15 | COc1ccc2c(c1)C(=O)N(C[C@@]1(c3cc(-c4cn(C)c5ccccc45)no3)NC(=O)NC1=O)C2 [Compound 9254] | < 10 | 
16 | COc1ccc2c(c1)C(=O)N(C[C@@]1(c3cc(-c4cnc5ccccc5n4)no3)NC(=O)NC1=O)C2 [Compound 9255] | < 10 | 
17 | COc1ccc2c(c1)C(=O)N(C[C@@]1(c3cc(C)no3)NC(=O)NC1=O)C2 [Compound 9256] | < 10 | 2.02
18 | CCCc1cc([C@]2(CN3Cc4ccc(OC)cc4C3=O)NC(=O)NC2=O)on1 [Compound 9257] | < 10 | 
19 | COc1ccc2c(c1)C(=O)N(C[C@@]1(c3c[nH]nn3)NC(=O)NC1=O)C2 [Compound 9258] | 10 to 100 | 
20 | COc1ccc2c(c1)C(=O)N(C[C@@]1(c3cc(-c4ccccc4)nn3C)NC(=O)NC1=O)C2 [Compound 9259] | < 10 | 
21 | COc1ccc2c(c1)C(=O)N(C[C@@]1(c3cc(-c4ccccc4)nn3-c3ccccc3)NC(=O)NC1=O)C2 [Compound 9260] | 10 to 100 | 
22 | COc1ccc2c(c1)C(=O)N(C[C@@]1(c3cc(-c4ccccc4)nc(C)n3)NC(=O)NC1=O)C2 [Compound 9261] | < 10 | 
23 | O=C1NC(=O)[C@](CN2Cc3ccc(F)cc3C2=O)(c2cn(Cc3ccccc3)nn2)N1 [Compound 9262] | 10 to 100 | 
24 | COc1ccc2c(c1)C(=O)N(C[C@@]1(c3cn(C(C)C)nn3)NC(=O)NC1=O)C2 [Compound 9263] | < 10 | 

Row | Compound | Ki [1] [nM] | Ki [2] [nM]
25 | COc1ccc2c(c1)C(=O)N(C[C@@]1(c3cnn(C(C)C)n3)NC(=O)NC1=O)C2 [Compound 9264] | < 10 | 
26 | COc1ccc2c(c1)C(=O)N(C[C@@]1(c3cn(C4CCCC4)nn3)NC(=O)NC1=O)C2 [Compound 9265] | < 10 | 
27 | COc1ccc2c(c1)C(=O)N(C[C@@]1(c3cnn(C4CCCC4)n3)NC(=O)NC1=O)C2 [Compound 9266] | < 10 | 
28 | COc1ccc2c(c1)C(=O)N(C[C@@]1(c3cn(-c4ccc(F)cc4)nn3)NC(=O)NC1=O)C2 [Compound 9267] | < 10 | 
29 | COc1ccc2c(c1)C(=O)N(C[C@@]1(c3cnn(-c4ccc(F)cc4)n3)NC(=O)NC1=O)C2 [Compound 9268] | < 10 | 
30 | COc1ccc2c(c1)C(=O)N(C[C@@]1(c3cn(-c4cccnc4)nn3)NC(=O)NC1=O)C2 [Compound 9269] | < 10 | 
31 | COc1ccc2c(c1)C(=O)N(C[C@@]1(c3cnn(-c4cccnc4)n3)NC(=O)NC1=O)C2 [Compound 9270] | < 10 | 
32 | COc1ccc2c(c1)C(=O)N(C[C@@]1(c3cn(-c4cnccn4)nn3)NC(=O)NC1=O)C2 [Compound 9271] | < 10 | 
33 | COc1ccc2c(c1)C(=O)N(C[C@@]1(C(=O)Cc3c[nH]c(=O)c(C)c3)NC(=O)NC1=O)C2 [Compound 9272] | < 10 | 
34 | COc1ccc2c(c1)C(=O)N(C[C@@]1(c3cc4ncccc4o3)NC(=O)NC1=O)C2 [Compound 9273] | < 10 | 1.84
35 | COc1ccc2c(c1)C(=O)N(C[C@@]1(c3cc4nc(Br)ccc4o3)NC(=O)NC1=O)C2 [Compound 9274] | < 10 | 
36 | COc1ccc2c(c1)C(=O)N(C[C@@]1(c3cc4nc(C)ccc4o3)NC(=O)NC1=O)C2 [Compound 9275] | < 10 | 0.98
37 | COc1ccc2c(c1)C(=O)N(C[C@@]1(c3cc4cc(C)cnc4o3)NC(=O)NC1=O)C2 [Compound 9276] | < 10 | 
38 | COc1ccc2c(c1)C(=O)N(C[C@@]1(c3cc4ncc(C)cc4o3)NC(=O)NC1=O)C2 [Compound 9277] | < 10 | 
39 | COc1ccc2c(c1)C(=O)N(C[C@@]1(c3cc4nc(I)c(C)cc4o3)NC(=O)NC1=O)C2 [Compound 9278] | < 10 | 
40 | COc1ccc2c(c1)C(=O)N(C[C@@]1(c3ccc(-c4nc5ncnc(N)c5n4C)cc3)NC(=O)NC1=O)C2 [Compound 9500] | < 10 | 
41 | COc1ccc2c(c1)C(=O)N(C[C@@]1(c3ccc(-c4ccc(-c5nccs5)cn4)cc3)NC(=O)NC1=O)C2 [Compound 9501] | < 10 | 
42 | COc1cnc(-c2ccc([C@]3(CN4Cc5ccc(OC)cc5C4=O)NC(=O)NC3=O)cc2)nc1 [Compound 9502] | < 10 | 
43 | COc1ccc2c(c1)C(=O)N(C[C@@]1(c3ccc(-c4cn(C)nc4C(F)(F)F)cc3)NC(=O)NC1=O)C2 [Compound 9504] | < 10 | 
44 | COc1ccc2c(c1)C(=O)N(C[C@@]1(c3ccc(-c4cc(C(F)(F)F)cc5ncn(CC6CC6)c45)cc3)NC(=O)NC1=O)C2 [Compound 9505] | < 10 | 
45 | COc1ccc2c(c1)C(=O)N(C[C@@]1(c3ccc(-c4cc(C(F)(F)F)cc5c4ncn5CC4CC4)cc3)NC(=O)NC1=O)C2 [Compound 9506] | < 10 | 
46 | COc1ccc2c(c1)C(=O)N(C[C@@]1(c3ccc(-c4ccc5ccn(C)c5n4)cc3)NC(=O)NC1=O)C2 [Compound 9507] | < 10 | 
47 | COc1ccc2c(c1)C(=O)N(C[C@@]1(c3ccc(-c4ncccn4)cc3)NC(=O)NC1=O)C2 [Compound 9509] | < 10 | 
48 | Cc1noc(C)c1-c1ccc([C@]2(CN3Cc4ccc(OC(F)F)cc4C3=O)NC(=O)NC2=O)cc1 [Compound 9510] | < 10 | 

Row | Compound | Ki [1] [nM] | Ki [2] [nM]
49 | COc1ccc2c(c1)C(=O)N(C[C@@]1(c3ccc(-c4cnc5ncccc5c4)cc3)NC(=O)NC1=O)C2 [Compound 9511] | < 10 | 
50 | Cc1n[nH]c(C)c1-c1ccc([C@]2(CN3Cc4ccc(OC(F)F)cc4C3=O)NC(=O)NC2=O)cc1 [Compound 9512] | < 10 | 
51 | COc1ccc2c(c1)C(=O)N(C[C@]1(c3ccc(-c4ccc5ccn(C)c5n4)cc3)NC(=O)NC1=O)C2 [Compound 9513] | 10 to 100 | 
52 | COc1ccc2c(c1)C(=O)N(C[C@@]1(c3ccc(-c4cnc(C)[nH]4)cc3)NC(=O)NC1=O)C2 [Compound 9515] | 100 to 1000 | 
53 | COc1ccc2c(c1)C(=O)N(C[C@]1(c3ccc(-c4ccc(-c5nccs5)cn4)cc3)NC(=O)NC1=O)C2 [Compound 9517] | 100 to 1000 | 
54 | COc1ccc2c(c1)C(=O)N(C[C@@]1(c3ccc(-c4ccc(C)nc4)cc3)NC(=O)NC1=O)C2 [Compound 9520] | < 10 | 
55 | COc1ccc2c(c1)C(=O)N(C[C@@]1(c3ccc(-c4ccncc4F)cc3)NC(=O)NC1=O)C2 [Compound 9521] | < 10 | 
56 | COc1ccc2c(c1)C(=O)N(C[C@@]1(c3ccc(-c4cnc(N)nc4)cc3)NC(=O)NC1=O)C2 [Compound 9522] | < 10 | 
57 | COc1ccc2c(c1)C(=O)N(C[C@@]1(c3ccc(-c4ccnc(N)c4)cc3)NC(=O)NC1=O)C2 [Compound 9523] | < 10 | 
58 | COc1ccc2c(c1)C(=O)N(C[C@@]1(c3cc(Cl)c(O)c(Cl)c3)NC(=O)NC1=O)C2 [Compound 9601] | < 10 | 
59 | COc1ccc2c(c1)C(=O)N(C[C@@]1(c3ccc(O)c(Cl)c3)NC(=O)NC1=O)C2 [Compound 9602] | < 10 | 
60 | COc1ccc2c(c1)C(=O)N(C[C@@]1(c3ccc(Oc4ccc(F)cc4)cc3)NC(=O)NC1=O)C2 [Compound 9603] | < 10 | 
61 | COc1ccc2c(c1)CN(CC1(c3ccc(Oc4ccnc5ccccc45)cc3)NC(=O)NC1=O)C2=O (stereo not shown) [Compound 9607] | < 10 | 
62 | COc1ccc2c(c1)C(=O)N(CC1(c3ccc(Oc4ccccn4)cc3)NC(=O)NC1=O)C2 (stereo not shown) [Compound 9608] | 10 to 100 | 
63 | COc1ccc2c(c1)C(=O)N(CC1(c3ccc(Oc4ccncc4)cc3)NC(=O)NC1=O)C2 (stereo not shown) [Compound 9609] | 100 to 1000 | 
64 | COc1ccc2c(c1)C(=O)N(CC1(c3ccc(Oc4cccnc4)cc3)NC(=O)NC1=O)C2 (stereo not shown) [Compound 9610] | < 10 | 
65 | COc1ccc2c(c1)C(=O)N(C[C@@]1(c3ccc(Oc4cccnc4)cc3)NC(=O)NC1=O)C2 [Compound 9611] | < 10 | 
66 | COc1ccc2c(c1)C(=O)N(C[C@@]1(c3ccc(Oc4ccc5cnccc5c4)cc3)NC(=O)NC1=O)C2 [Compound 9612] | < 10 | 
67 | COc1ccc2c(c1)C(=O)N(C[C@@]1(c3ccc(Oc4ccccn4)cc3)NC(=O)NC1=O)C2 [Compound 9613] | < 10 | 
68 | COc1ccc2c(c1)C(=O)N(C[C@@]1(c3ccc(Oc4ccncc4)cc3)NC(=O)NC1=O)C2 [Compound 9614] | < 10 | 
69 | COc1ccc2c(c1)C(=O)N(C[C@@]1(c3ccc(Oc4ccnc5ccccc45)cc3)NC(=O)NC1=O)C2 [Compound 9615] | < 10 | 
70 | COc1ccc2c(c1)C(=O)N(C[C@@]1(c3ccc(Oc4cncnc4)cc3)NC(=O)NC1=O)C2 [Compound 9618] | < 10 | 
